From patent publication EP4471048A1, “PEPTIDE INHIBITORS OF INTERLEUKIN-23 RECEPTOR” (Zealand Pharma A/S, priority 2023, dated 2024)

Test: in vitro
Details: pig, pH 6.8

remaining at 1 h, 10 µM: 47%
remaining at 4 h, 10 µM: 22%
SMILES: CC(=O)N[C@H](CCCNC(=N)N)C(=O)N[C@H]1CCSC[C@@H](C(=O)N[C@@H](Cc2ccc(OCCN)cc2)C(=O)N[C@@H](Cc2ccc3ccccc3c2)C(=O)NC2(C(=O)N[C@@H](CCC(=O)O)C(=O)N[C@@H](CC(N)=O)C(=O)N[C@@H](CC(N)=O)C(N)=O)CCOCC2)NC(=O)[C@H](CCC(N)=O)NC(=O)[C@H](Cc2c[nH]c3ccccc23)NC(=O)[C@H]([C@@H](C)O)NC(=O)[C@H](CCC(N)=O)NC1=O [Peptide 993, [Ac]-[{d}R][Abu](16i)QTWQC(16i)[Y(2-aminoethoxy)][2-Nal][4-Aminotetrahydro-2H-pyran-4-carbonyl]ENN-[NH2], reference compound]
